{
  "source": "ChEMBL document CHEMBL1138707",
  "about": "“Bridgehead modification of trihalocycloheptabenzopyridine leads to a potent farnesyl protein transferase inhibitor with improved oral metabolic stability” (Bioorg Med Chem Lett, 2004)",
  "molecular_target": "Protein farnesyltransferase (Homo sapiens, UniProt P49354+P49356)",
  "data": [
    {"smiles": "NC(=O)N1CCC(CC(=O)N2CCC([C@H]3c4ncc(Br)cc4CCc4cc(Cl)cc(Br)c43)CC2)CC1", "note": "[LONAFARNIB]", "values": [
      {"measurement": "IC50", "result": 500, "unit": "µM"}
    ]}
  ]
}
